Measured values from ChEMBL document CHEMBL5579799, “Synthesis and biological evaluation of novel 18F-labeled 2,4-diaminopyrimidine derivatives for detection of ghrelin receptor in the brain” (Bioorg Med Chem Lett, 2024).

Assay: in vitro
Details: mouse, plasma

remaining at 1 h: 80%
SMILES: Nc1nc(N)c(-c2ccc(NCc3ccc(OCC[18F])cc3)cc2)c(COCc2ccccc2)n1
